High-throughput results: PubChem BioAssay, National Center for Advancing Translational Sciences (NCATS)
PKM2 act – increases activity of human pyruvate kinase M2 | P14618 | 0.34% of 260,000 active | Potency, µM (series often up to 57.5 µM), inactives show at the highest dose activation, most hits filed as activators | purified PKM2, Kinase-Glo ATP luminescence, activation; response scale: 0% is enzyme alone, no compound; further: potency means the concentration at half of the fitted maximal effect; on the % scale 0 is the no-effect control and ±100 the full control effect; nearly all actives have a fitted effect of over 55% in size
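Purified hPK-M2 (>95% pure) converted ADP (0.1 mM final) to ATP with 0.5 mM PEP in 50 mM imidazole pH7.2, KCl, MgCl2, Tween 20, BSA; 1 h at room temperature. ATP detected by Kinase-Glo luminescence.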
miR-21 reporter – raises the signal of a miR-21 reporter | HeLa miR-21 FLuc reporter, luciferase, 48 h | Potency, µM (doses to about 38.3 µM), for the others: at the highest dose reporter change, positive = more light | 340,000 tested, under 10 active | AID 2288; active = well fitted rising curve with a large enough effect; inconclusive = small, poorly fitted or top-dose-only effect; inactive = no such curve, though single readings can be large or run the other way;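 also: % of control where 0% means no effect; miR-21 action dims this reporter so a rising signal means less miR-21 action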
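HeLa miR-21-FLuc reporter line, endogenous miR-21; 2000 cells/well in DMEM/10% FBS; compound titration up to ~40uM final, 48 h, 37 degree Celsius; luciferase detection reagent, 15 min lysis, CCD luminescence.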
PINK1 expr mod – modulators of PINK1 expression | AID 624263 | Potency, µM (top dose mostly 76.6 µM), for the others: top-dose activation (PINK1 increase), most hits filed as activators | PINK1 immunofluorescence, high-content cytometry, 24 h | 0.2% of 410,000 active; active means well fitted activation curve with a large enough effect; inconclusive means small, poorly fitted or top-dose-only effect; cell line not stated here; further: potency means the concentration at half of the fitted maximal effect; % of control where 0% means no effect; nearly all actives have a fitted effect of over 65% in size
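Readout is PINK1 immunofluorescence, quantified alongside mitochondrial, cell and nuclear markers by laser-scanning microplate cytometry. Cells from a stable line were exposed to compound titrations (5 concentrations) for 24 hours, with CCCP controls.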
B2AR arrestin – recruits beta-arrestin to the human beta2-adrenergic receptor | AID 492947 | beta-arrestin recruitment to beta2AR, cell-based reporter | P07550 | Potency, µM (doses to about 46.1 µM), without a hit: at the top dose activation, usual class: activators | 0.02% of 330,000 active;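 further: potency means the concentration at half of the fitted maximal effect; 0% = DMSO controls and full agonism = EC100 isoproterenol or metaproterenol; nearly all actives have a fitted effect of over 65% in size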
BCR signal inh – inhibitors of chronic active B-cell receptor signaling | ABC-DLBCL IkBa-CBG/CBR reporter, luminescence ratio, 4 h | Potency, µM (series often up to 46.1 µM), for inactives: at the top dose activity change, negative = inhibition, most hits filed as inhibitors | 0.05% of 340,000 active; active means well fitted inhibition curve with a large enough effect in the signal ratio, with a control signal flat, not every such curve was filed as active; inconclusive means small, poorly fitted or top-dose-only effect, or effect the other way, or a change in a side signal; the % refers to the signal ratio;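 further: potency means the concentration at half of the fitted maximal effect; plate controls were basal doxycycline-induced cells for no effect and cells given 10 µM MG132 for full effect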
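TMD8 ABC-DLBCL cells carrying doxycycline-inducible green luciferase fused to IkappaBalpha plus unfused red luciferase were exposed to compounds (up to 46 uM) for 4 hrs at 37C. Activity came from the overlap-corrected green/red luminescence ratio.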
Pin1 inhibitor – human Pin1 inhibition. Pin1 FP peptide displacement, HiFluor488, 10 min. Potency, µM (titrated, usually from 115 µM), for inactives: top-dose activity, negative = inhibition, hits mostly inhibitors. 0.009% of 390,000 active. AID 504891; active means well fitted inhibition curve with a large enough effect in the polarisation, with a control signal flat, not every such curve was filed as active; inconclusive means small, poorly fitted or top-dose-only effect, or effect the other way, or a change in a side signal; inactive means no such curve, though single readings can be large or run the other way; the % refers to the polarisation; further: potency means the concentration at half of the fitted maximal effect; on the % scale 0 is the no-effect control and ±100 the full control effect
Active calls of the source: *; ? = inconclusive; . = not tested or not shown; [ ] = another dose, or the depositor's remark. This is a sample that favours compounds with a hit; in the whole collection about 0.46% have one here. Unless noted, the call rests on the fitted dose curve; in most records, active means well fitted curve in the direction sought with a large enough effect; inconclusive means small, poorly fitted or top-dose-only effect, or another doubt; inactive means no such curve, though single readings can be large; an effect the other way counts as inactive or inconclusive.

The line under a structure holds: PKM2 act	miR-21 reporter	PINK1 expr mod	B2AR arrestin	BCR signal inh	Pin1 inhibitor
- Cc1c(C(=O)N2CC3CCC2C3)sc2ncnc(NCCc3c[nH]c4ccccc34)c12 (configuration not stated)
 : .	.	0%	.	.	.
- COc1ccc(N(C(=O)CCl)C(C)(C(=O)Nc2c(C)cccc2C)c2ccccn2)cc1 (configuration not stated)
 : 12%	-14%	2%	13µM*	?	?
- CCOc1ccc(NC(=O)C(c2ccccn2)N(C(=O)CCl)c2ccc(OC)cc2)cc1 (configuration not stated)
 : -3%	-34%	6%	0%	?	-11%
- O=C(O)CNc1cccc(-c2nn3c(=O)cc(N4CCNCC4)nc3s2)c1
 : .	.	.	.	.	10%
- COc1ccc2cc(CNC3CCS(=O)(=O)C3)c(-c3ccc(OC)c(OC)c3)nc2c1 (configuration not stated)
 : .	.	1%	.	.	.
- COc1ccc([C@H](C)NC[C@H](O)c2ccc(O)c(NC=O)c2)cc1
 : -3%	-24%	1%	18µM*	-1%	0%
- CCOC(=O)c1c(C)c(C(=O)Nc2ccc(N(C)C)cc2)c(C)n1CC
 : 17%	-1%	11µM*	-1%	1%	3%
- COc1cc(-c2cc(C)c3c(OC)ccc(OC)c3n2)cc2c1OCCN(C(=O)CCn1ccc(C)n1)C2
 : .	.	0%	.	.	.
- COc1ccc(C2Nc3ccccc3C(=O)N2Cc2ccccc2)cc1COc1ccc(C#N)cc1 (configuration not stated)
 : .	.	.	.	.	15%
- Cc1ccc(S(=O)(=O)NCC(=O)NCC(=O)OCc2c(F)cccc2Cl)cc1
 : 35µM*	-14%	1%	0%	?	-1%
- CCOC(=O)c1sc(=S)n(C)c1NC(=O)c1cccc(Br)c1
 : -5%	19%	40µM*	0%	?	-2%
- CCOC(=O)c1sc(=S)n(C)c1NC(=O)c1ccccc1
 : -17%	-2%	-4%	0%	4%	-3%
- O=C(Nc1ccc(Cl)cc1)Nc1ccc(N2CCCC2)c(S(=O)(=O)Nc2ccccc2Cl)c1
 : 4%	10%	2.8µM*	-1%	0%	8%
- O=C(Nc1ccc(N2CCOCC2)c(S(=O)(=O)Nc2ccccc2Cl)c1)c1ccccc1
 : .	.	1%	-1%	0%	6%
- COc1ccc(C2c3c(ncn(CCc4ccccc4)c3=N)Oc3ccc4ccccc4c32)cc1OC (configuration not stated)
 : .	.	.	.	.	3%
- COc1cc(-c2cccc(OC)c2OC)cc2c1OCCN(Cc1cn[nH]c1-c1ccc(Cl)cc1)C2
 : .	.	2%	.	.	.
- CN1CCN(C(=O)c2ccc3c(=O)n(Cc4ccc5c(c4)OCO5)c(=S)[nH]c3c2)CC1
 : .	.	1%	.	.	34%
- CCCn1c(=S)[nH]c2cc(C(=O)N3CCN(c4ccccc4)CC3)ccc2c1=O
 : .	.	0%	.	.	.
- O=C(c1ccc2c(=O)n(Cc3ccc4c(c3)OCO4)c(=S)[nH]c2c1)N1CCCCC1
 : 0%	-1%	14µM*	0%	3%	9%
- O=C(c1ccc2c(=O)n(Cc3ccco3)c(=S)[nH]c2c1)N1CCN(c2ccccc2)CC1
 : 13µM*	0%	4%	0%	0%	12%

Laid out differently: 4 of the compounds above
COc1ccc(C2c3c(ncn(CCc4ccccc4)c3=N)Oc3ccc4ccccc4c32)cc1OC (configuration not stated)
- PKM2 act: .
- miR-21 reporter: .
- PINK1 expr mod: .
- B2AR arrestin: .
- BCR signal inh: .
- Pin1 inhibitor: 3%

COc1cc(-c2cccc(OC)c2OC)cc2c1OCCN(Cc1cn[nH]c1-c1ccc(Cl)cc1)C2
- PKM2 act: .
- miR-21 reporter: .
- PINK1 expr mod: 2%
- B2AR arrestin: .
- BCR signal inh: .
- Pin1 inhibitor: .

CN1CCN(C(=O)c2ccc3c(=O)n(Cc4ccc5c(c4)OCO5)c(=S)[nH]c3c2)CC1
- PKM2 act: .
- miR-21 reporter: .
- PINK1 expr mod: 1%
- B2AR arrestin: .
- BCR signal inh: .
- Pin1 inhibitor: 34%

CCCn1c(=S)[nH]c2cc(C(=O)N3CCN(c4ccccc4)CC3)ccc2c1=O
- PKM2 act: .
- miR-21 reporter: .
- PINK1 expr mod: 0%
- B2AR arrestin: .
- BCR signal inh: .
- Pin1 inhibitor: .

Carrying on:
The line under a structure holds: PKM2 act	miR-21 reporter	PINK1 expr mod	B2AR arrestin	BCR signal inh	Pin1 inhibitor
- CC(=O)c1ccc(-c2cc(F)cc3c2OC(CNC(=O)Cc2cn4ccsc4n2)C3)s1 (configuration not stated)
 : .	.	0%	.	.	.
- Cn1c(CCNC(=O)c2ccco2)nc2cc(NS(=O)(=O)c3ccccc3)ccc21
 : 3.2µM*	5%	12%[38.3 µM]	6%	9%	-4%
- Cn1c(CCNC(=O)c2ccco2)nc2cc(NC(=O)c3ccco3)ccc21
 : -7%	-41%	0%	0%	?	0%
- COC(=O)c1cc(CNC(=O)c2ccccc2OC)cc(NC(=O)c2ccccc2F)c1
 : .	.	0%	.	.	.
- Cc1cc2c(c(-c3ccc(Cl)cc3)c1)OC(CNC(=O)CCC(=O)N(C)C)C2 (configuration not stated)
 : .	.	1%	.	.	.
- O=S(=O)(Nc1ccc(N2CCOCC2)nn1)c1ccccc1
 : 14µM*	-1%	0%	-1%	-2%	-1%
- CC(=O)c1ccc(S(=O)(=O)Nc2cccc(-c3ccc(N4CCOCC4)nn3)c2)cc1
 : .	.	0%	0%	?	2%
- CC[n+]1ccccc1/C=C1\Sc2ccc(C)cc2N1C
 : .	29%	16µM*	0%	0%	7%
- CN1/C(=C/c2cccc[n+]2CCO)Sc2ccccc21
 : -6%	4%	0%	0%	0%	6%
- CC(C)N1Cc2ccc(Nc3nn4c(=O)c5ccccc5nc4s3)cc2C1
 : .	.	.	.	.	-1%
- COc1ccc(CN(Cc2ccccc2)C(=O)c2ccccc2O)cc1COc1ccc(NC(C)=O)cc1
 : .	.	.	.	.	17%
- Cc1ccc(C(C#N)c2ccc3c(C(F)(F)F)cc(C(F)(F)F)nc3n2)cc1 (configuration not stated)
 : 3%	10%	8.9µM*	0%	-2%	1%
- N#CC(c1ccccc1)c1ccc2c(C(F)(F)F)cc(C(F)(F)F)nc2n1 (configuration not stated)
 : 6%	?	?	0%	18%	2%
- Cc1ccc(NC(=S)NC(NC(=O)c2ccccc2)C(Cl)(Cl)Cl)c(C)c1 (configuration not stated)
 : 7%	?	40µM*	?	?	15%
- Cc1cc(C)c(NC(=S)NC(NC(=O)c2ccccc2)C(Cl)(Cl)Cl)c(C)c1 (configuration not stated)
 : -3%	?	16%	?	?	-5%
- O=C(c1cnn(-c2nccc(-c3ccccc3C(F)(F)F)n2)c1C1CC1)N1CCN(CCO)CC1
 : .	.	0%	.	.	.
- Fc1ccc(N2CCN(Cc3ccc4c(c3)CN(Cc3cccn3-c3cccnc3)CCO4)CC2)cc1
 : .	.	0%	.	.	.
- O=[N+]([O-])c1ccc(O)c(/C=N/NC(=S)Nc2ccc(Cl)cc2Cl)c1
 : -12%	0%	40µM*	0%	?	2%
- O=C(N/N=C/c1cc([N+](=O)[O-])ccc1O)c1c[nH]c2ccccc12
 : 1%	27%	35µM*	0%	-1%	2%
- Cc1cc(Cl)ccc1NC(=O)CCC(=O)N/N=C/c1cc([N+](=O)[O-])ccc1O
 : -16%	0%	0%	0%	2%	9%
- O=C(N/N=C/c1cccc([N+](=O)[O-])c1)c1c[nH]c2ccccc12
 : 5%	-40%	2%	-1%	?	-4%
- COc1cc(NS(=O)(=O)c2cc3c(cc2C)NC(=O)CO3)cc(OC)c1
 : 7.1µM*	6%	2%	0%	-13%	0%
